The list shows a part of the results, in another mix than the full data. Active and inactive are the calls of the source.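 How the source made its calls: active means fluorescence slope higher than the sample average by over 3 SD (cut at about -0.22 in these data, passing the limit was not always enough); inactive means the rest.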
target: Voltage-gated potassium channel subunit beta-2 (Rattus norvegicus) (UniProt P62483); experiment: inhibitors of rat Kvbeta2 reductase activity – biochemical, NADPH fluorescence, primary screen (AID 622); conditions: recombinant KvBeta, 4-cyanobenzaldehyde reduction, at 10 µM, hits give high values;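 further: slope of raw intensity against log time taken from 70 to 1610 s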

Chains of the proteins cited; added tags and fusions are not shown.
UniProt P62483, whole entry: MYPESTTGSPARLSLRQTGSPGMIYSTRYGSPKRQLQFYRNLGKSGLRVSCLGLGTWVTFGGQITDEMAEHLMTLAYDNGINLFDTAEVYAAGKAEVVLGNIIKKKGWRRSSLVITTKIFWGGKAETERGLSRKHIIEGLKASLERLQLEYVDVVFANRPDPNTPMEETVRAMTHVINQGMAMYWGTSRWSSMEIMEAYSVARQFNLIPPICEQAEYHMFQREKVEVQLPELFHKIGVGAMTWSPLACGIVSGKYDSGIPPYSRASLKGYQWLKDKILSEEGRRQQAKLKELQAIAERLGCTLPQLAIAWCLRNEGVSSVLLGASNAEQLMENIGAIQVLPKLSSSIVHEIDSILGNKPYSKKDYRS

Row | Structure (SMILES) | fluorescence slope
1 | CN(C)CCOC(=O)C(O)(c1ccccc1)C1CCCCC1 (stereo unspecified) | inactive: -0.504
2 | CP(=O)(Nc1ccc2c(c1)OCCO2)Oc1ccccc1 (stereo unspecified) | inactive: -0.305
3 | CCN(CC)CC(O)COC(=O)C(O)(c1ccccc1)C1CCCCC1 (stereo unspecified) | inactive: -0.498
4 | CP(=O)(Nc1ccccn1)Oc1ccccc1 (stereo unspecified) | inactive: -0.381
5 | CP(=S)(Nn1cnnc1)Oc1ccccc1 (stereo unspecified) | inactive: -0.612
6 | Cc1ccc(C)c(NP(C)(=O)Oc2ccccc2)c1 (stereo unspecified) | inactive: -0.449
